According to ChEMBL document CHEMBL3352416, “Discovery of carbohybrid-based 2-aminopyrimidine analogues as a new class of rapid-acting antimalarial agents using image-based cytological profiling assay” (J Med Chem, 2014):

Experiments:
Plasmodium falciparum [1] = assay: Antimalarial activity against tightly synchronized Plasmodium falciparum W2 assessed as parasite stage accumulation index at trophozoites stages at 10 uM treated at 18 hrs post-invasion for continuous duration of 36 hrs by automated image mining based cytological profiling assay; type: functional
Method in brief: (§1)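 Tightly synchronized cultures exposed to 10 µM final from 6 hpi (early ring), 18 hpi (late ring) or 30 hpi (mid-trophozoite) for a continuous 36 h. Erythrocytes stained with WGA-AlexaFluor 488, parasite nuclei with DAPI, functional mitochondria with Mitotracker Red CMXRos. Stages (early rings, late rings, trophozoites, schizonts) classified by nuclear spot number and size. Viable parasitaemia and stage accumulation index obtained by automated image analysis.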

Plasmodium falciparum [2] = assay: Antimalarial activity against tightly synchronized Plasmodium falciparum K1 assessed as parasite stage accumulation index at trophozoites stages at 10 uM treated at 6 hrs post-invasion for continuous duration of 36 hrs by automated image mining based cytological profiling assay; type: functional; method in brief: as §1

## CCN(CC)CCCC(C)Nc1ccnc2cc(Cl)ccc12 (configuration not stated) [CHLOROQUINE]
Plasmodium falciparum [1]
  Activity: 1.12
Plasmodium falciparum [2]
  Activity: 1.11
